# Tests used:
# Vero E6 cells [1] = test system: Vero E6 cells
# Vero E6 cells [2] = conditions: 48 hours, CellTiterGlo
substance,measurement,setting,value
Miquelianin/Quercetin 3-glucuronide,effect on Host Cell Number (cell viability),Vero E6 cells [1],did not show an effect
same,concentrations that did not significantly impact Vero E6 cell viability compared to the DMSO treated control,Vero E6 cells [2],less than or equal to 100 μM
same,toxicity observed at (and above) concentration,Vero E6 cells [2],1000 µM
